Target: Human recombinant PDE10A2 (Homo sapiens (Human), UniProt Q9Y233)
Test: In vitro hPDE10a: human recombinant PDE10A2 scintillation proximity assay, IC50
Type: biochemical
Details: human recombinant PDE10A2, SPA, 60 nM cAMP; read-out: hPDE10a2 IC50
Method: In Vitro hPDE10a […] Cells were harvested and the phosphodiesterase protein was purified by metal chelate chromatography on Ni-sepharose 6FF. The affinity of the compounds of Formula (I) for phophodiesterases (PDE) was measured by a scintillation proximity assay (SPA). PDE Yttrium Silicate SPA beads allow PDE activity to be measured by direct binding of the primary phosphate groups of non-cyclic AMP or GMP to the beads via a complex iron chelation mechanism. The amount of bound tritiated product ([^3H]-AMP) is measured by liquid scintillation counting. The compounds were dissolved and diluted in 100% DMSO in polystyrene plates to a concentration of 100-fold the final concentration in the assay. […] After incubation, the reaction was stopped with 20 μL of stop solution, consisting of PDE SPA beads (17.8 mg beads/mL in 18 mM zinc sulphate). […] To measure the low control, no enzyme was added to the reaction mixture. Data were calculated as the percentage of inhibition of total activity measured in the absence of test compound (% control). […] For compounds tested more than once, the data points were aggregated.

Protein sequences, listed by entry. Tags and fused reporters are not part of them. Residues count along the entry.
UniProt Q9Y233, 267-1055: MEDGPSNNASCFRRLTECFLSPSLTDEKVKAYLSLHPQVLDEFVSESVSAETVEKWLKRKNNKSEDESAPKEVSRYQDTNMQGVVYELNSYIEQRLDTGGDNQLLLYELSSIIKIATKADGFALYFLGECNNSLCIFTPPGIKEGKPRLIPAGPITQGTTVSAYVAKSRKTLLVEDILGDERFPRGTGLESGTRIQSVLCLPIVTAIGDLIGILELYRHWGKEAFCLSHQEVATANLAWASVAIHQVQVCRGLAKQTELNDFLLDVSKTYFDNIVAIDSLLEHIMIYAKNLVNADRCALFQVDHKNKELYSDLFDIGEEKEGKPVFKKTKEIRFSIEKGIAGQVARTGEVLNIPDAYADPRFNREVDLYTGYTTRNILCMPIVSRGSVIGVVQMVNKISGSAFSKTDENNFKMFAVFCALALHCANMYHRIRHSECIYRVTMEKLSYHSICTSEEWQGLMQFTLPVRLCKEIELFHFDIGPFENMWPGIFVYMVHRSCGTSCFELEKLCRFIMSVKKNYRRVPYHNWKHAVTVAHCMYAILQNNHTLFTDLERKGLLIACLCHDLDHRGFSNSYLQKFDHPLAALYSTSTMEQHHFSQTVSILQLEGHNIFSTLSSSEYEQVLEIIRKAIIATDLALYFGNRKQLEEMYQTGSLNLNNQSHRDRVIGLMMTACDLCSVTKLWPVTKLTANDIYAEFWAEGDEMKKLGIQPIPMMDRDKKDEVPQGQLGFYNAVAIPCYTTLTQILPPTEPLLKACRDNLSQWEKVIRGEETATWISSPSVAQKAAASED

IC50: 2 nM
Structure (SMILES): O=C(O)C1(c2ccc(-c3c([C@H]4C[C@H](c5ccc6ccccc6n5)C4)nc4c(N5CCOCC5)ccnn34)cc2)CC1 [Cpd 175, 1-{4-[8-Morpholin-4-yl-2-(trans-3-quinolin-2-ylcyclobutyl)imidazo[1,2-b]pyridazin-3-yl]phenyl}cyclopropanecarboxylic acid]
